Results as given in patent US20240294879A1, “STEM CELL DIFFERENTIATION AND POLYMERS” (VERTEX PHARMACEUTICALS INCORPORATED, priority 2021, published 2024).

System: PDX1-positive, NKX6.1-positive cells
Assay: Flow cytometry, PDX1-positive, NKX6.1-positive cells at Stage 4
Type: cell-based, human
Details: Stage 4, flow cytometry, first experiment
Description: Version A protocol is a 6-stage stepwise protocol. With Version A protocol, stem cells were treated with reagents in the following consecutive orders during the first five stages: Stage 1 (S1): Activin-A for 3 days and also CHIR99021 for the first 24 hr; Stage 2 (S2): KGF for 3 days; Stage 3 (S3): KGF, PDBU, Sant-1, retinoic acid (RA), Activin A, and Thiazovivin for 2 days, and also DMH-1 for the first day; Stage 4 (S4): KGF, Sant-1, Thiazovivin, Activin A, and RA for 6 days; Stage 5 (S5): XXI, Alk5i, GC-1, LDN-193189, Thiazovivin, Staurosporine, and DZNEP for 7 days, and also RA, Sant-1, and Betacellulin for the first 2 days; and Stage 6 (S6): HSA, ZnSO4, L-glutamic acid, formate, L-carnitine, taurine, acetate, beta-hydroxybutyrate, and biotin for 7-11 days, and also Alk5i, GC-1, LDN-193189, thiazovivin, staurosporine and DZNEP for the first four days. Throughout the differentiation stages from S1 to S6, HSA was supplemented to the culture medium: about 0.05% from S1 to S5, and 0.05% for the first three days in S6 and then increased to 1% for the remainder of S6.
In one experiment, PVA materials that have different hydrolyzation levels: 87-89%, 87-90%, and 99%, were used to replace HSA used in Version A (control). About 0.5% PVA was used from S1-S5, and PVA was not included in S6. […]

human serum albumin [HSA]
percentage of PDX1-positive, NKX6.1-positive cells: 70.3%
